In US11447493B2 (Kinnate Biopharma Inc., priority 2018, dated 2022) one finds IC50 data, which are given here for 14 molecules.

The chains behind the UniProt entries cited, without tags or fusion partners. Where a name states a change or a piece, a line headed by the entry shows the natural chain unless it says otherwise.
UniProt P50613: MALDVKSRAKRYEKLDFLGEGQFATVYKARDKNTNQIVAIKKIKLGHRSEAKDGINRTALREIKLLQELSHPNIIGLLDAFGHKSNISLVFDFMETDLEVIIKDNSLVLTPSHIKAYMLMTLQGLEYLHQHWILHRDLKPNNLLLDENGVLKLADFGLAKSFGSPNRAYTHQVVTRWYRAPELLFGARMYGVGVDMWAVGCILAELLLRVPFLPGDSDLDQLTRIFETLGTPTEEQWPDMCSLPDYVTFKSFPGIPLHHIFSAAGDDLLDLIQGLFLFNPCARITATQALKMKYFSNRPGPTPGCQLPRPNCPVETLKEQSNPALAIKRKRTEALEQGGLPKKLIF

Assay [1] addresses CDK7/CycH/MAT1 (Homo sapiens (Human), UniProt P50613). Nature of the assay: Radiometric protein kinase assay (33PanQinase), Assay Condition A (thiol containing). The note with it: thiol containing (1.2 mM DTT), ATP 3.0 μM. The assay is classed as biochemical. On the procedure: The IC50 profile of test compounds was determined using three protein kinases.
The compounds were provided as pre-weighed powders in vials. The compounds were dissolved to 1×10^−02M by adding DMSO. 100 μl of each of the resulting stock solutions were transferred into column 2 of four 96 well “master plates”.
Prior to testing, the 1×10^−02M stock solutions in column 2 of the master plates were subjected to a serial, semi-logarithmic dilution using 100% DMSO as a solvent. […] Column 1 and 7 were filled with 100% DMSO as controls. Subsequently, 2×10 μl from each well of the serial diluted copy plates were aliquoted with a 96 channel pipettor into two identical sets of “compound dilution plates”.
In the process, 90 μl H2O were added to each well of a set of compound dilution plates. To minimize potential precipitation, the H2O was added to each plate only a few minutes before the transfer of the compound solutions into the assay plates. Each plate was shaken thoroughly, resulting in a “compound dilution plate/10% DMSO”.
For the assays, 5 μl solution from each well of the compound dilution plates/10% DMSO were transferred into the assay plates. The final volume of the assay was 50 μl. All compounds were tested at 10 final assay concentrations in the range from 1×10^−04M to 3×10^−09M, in singlicate. The final DMSO concentration in the reaction cocktails was 1% in all cases.
All protein kinases were expressed in Sf9 insect cells or in E. coli as recombinant GST-fusion proteins or His-tagged proteins, either as full-length or enzymatically active fragments. All kinases were produced from human cDNAs and purified by either GSH-affinity chromatography or immobilized metal. Affinity tags were removed from a number of kinases during purification. The purity of the protein kinases was examined by SDS-PAGE/Coomassie staining, the identity was checked by mass spectroscopy.
A radiometric protein kinase assay (^33PanQinase® Activity Assay) was used for measuring the kinase activity of the three protein kinases. All kinase assays were performed in 96-well FlashPlates™ from PerkinElmer (Boston, Mass., USA) in a 50 μl reaction volume. The reaction cocktail was pipetted in four steps in the following order: • 20 μl of assay buffer (standard buffer) • 5 μl of ATP solution (in H2O) • 5 μl of test compound (in 10% DMSO) • 20 μl enzyme/substrate mix
The reaction cocktails were incubated at 30° C. for 60 minutes. The reaction was stopped with 50 μl of 2% (v/v) H3PO4, plates were aspirated and washed two times with 200 μl 0.9% (w/v) NaCl. Incorporation of ^33Pi was determined with a microplate scintillation counter (Microbeta, Wallac). All assays were performed with a BeckmanCoulter/SAGIAN™ Core System.
The median value of the counts in column 1 (n=8) of each assay plate was defined as “low control”. This value reflects unspecific binding of radioactivity to the plate in the absence of a protein kinase but in the presence of the substrate. The median value of the counts in column 7 of each assay plate (n=8) was taken as the “high control”, i.e. full activity in the absence of any inhibitor. The difference between high and low control was taken as 100% activity.
As part of the data evaluation the low control value from a particular plate was subtracted from the high control value as well as from all 80 “compound values” of the corresponding plate. The residual activity (in %) for each well of a particular plate was calculated by using the following formula: Res. Activity (%)=100×[(cpm of compound−low control)/(high control−low control)]
The residual activities for each concentration and the compound IC50 values were calculated using Quattro Workflow V3.1.1 (Quattro Research GmbH, Munich, Germany). […] The fitting method used was a least-squares fit.

In assay [2] the target is CDK7 (Homo sapiens (Human), UniProt P50613). Nature of the assay: Radiometric protein kinase assay (33PanQinase), Assay Condition B (thiol-free). The assay is classed as biochemical. To be noted: thiol-free (1 mM TCEP). As to the method:
The IC50 profile of compounds was determined using one protein kinase in a customized, thiol free assay. […] Prior to testing, the 1×10^−03 M stock solutions in column 2 of the master plates were subjected to a serial, semi-logarithmic dilution using 100% DMSO as a solvent. […] Column 1 and 7 were filled with 100% DMSO as controls. Subsequently, 2×10 microliter from each well of the serial diluted copy plates were aliquoted with a 96 channel pipettor into two identical sets of “compound dilution plates”. All plates were barcoded for automated identification and tracking purposes. […] All compounds were stored as powder until being solubilized in DMSO. Solubilized compounds were stored as 1×10^−02M/100% DMSO stock solutions. Prior to the assay process, 90 microliters of H2O were added to each well of a set of compound dilution plates. To minimize potential precipitation, the H2O was added to each plate only a few minutes before the transfer of the compound solutions into the assay plates. Each plate was shaken thoroughly, resulting in compound dilution plates with a final of 10% DMSO. For each assay, 5 microliters of solution from each well of the compound dilution plates/10% DMSO were transferred into the assay plate. The final volume of the assay was 50 μl. All compounds were tested at 10 final assay concentrations in the range from 1×10^−05M to 3×10^−10 M, in singlicate. The final DMSO concentration in the reaction cocktails was 1% in all cases. […] This was done so there would be no interference with the key cysteines in the proteins of interest.
For data analysis, the median value of the counts in column 1 (n=8) of each assay plate was defined as “low control”. This value reflects unspecific binding of radioactivity to the plate in the absence of a protein kinase but in the presence of the substrate. The median value of the counts in column 7 of each assay plate (n=8) was taken as the “high control”, i.e. full activity in the absence of any inhibitor. The difference between high and low control was taken as 100% activity. As part of the data evaluation the low control value from a particular plate was subtracted from the high control value as well as from all 80 “compound values” of the corresponding plate. The residual activity (in %) for each well of a particular plate was calculated by using the following formula: Res. Activity (%)=100×[(cpm of compound−low control)/(high control−low control)]
The residual activities for each concentration and the compound IC50 values were calculated using Quattro Workflow V3.1.1 (Quattro Research GmbH, Munich, Germany; www.quattro-research.com). […] The fitting method used was a least-squares fit. As a parameter for assay quality, the Z′-factor (Zhang et al., J. Biomol. Screen. 2: 67-73, 1999) for the low and high controls of each assay plate (n=8) was used. ProQinase's criterion for repetition of an assay plate is a Z′-factor below 0.4 (Iversen et al., J. Biomol. Screen. 3: 247-252, 2006).

SMILES strings stand for the structures.

The term IC50 denotes the concentration that gives 50% inhibition. The low end stands for inhibition by little substance, the high end for a need for much substance. In turn, `C=CC(=O)Nc1ccc(C(=O)N2CC[C@@H](Nc3ncc4ccccc4n3)C2)cc1` [Example 26, (R)-N-(4-(3-(quinazolin-2-ylamino)pyrrolidine-1-carbonyl)phenyl)acrylamide] had an IC50 in assay [1] of 100 to 1000 nM.
As for `C=CC(=O)Nc1ccc(C(=O)N2CC[C@@H](Nc3cc4ccccc4cn3)C2)cc1` [Example 27, (R)-N-(4-(3-(isoquinolin-3-ylamino)pyrrolidine-1-carbonyl)phenyl)acrylamide], in assay [2], the concentration for half-maximal inhibition (IC50) is 1000 to 10000 nM.
Same read-out and setting: next, `C=CC(=O)Nc1ccc(C(=O)N2CC[C@@H](Nc3ncc4cc(F)ccc4n3)C2)cc1` [Example 28, (R)-N-(4-(3-((6-fluoroquinazolin-2-yl)amino)pyrrolidine-1-carbonyl)phenyl)acrylamide]: 1000 to 10000 nM; `C=CC(=O)Nc1ccc(C(=O)N2CC[C@@H](Nc3ncc4ccc(S(C)(=O)=O)cc4n3)C2)cc1` [Example 33, (R)-N-(4-(3-((7-(methylsulfonyl)quinazolin-2-yl)amino)pyrrolidine-1-carbonyl)phenyl)acrylamide]: 100 to 1000 nM.
On to `C=CC(=O)Nc1ccc(C(=O)N2CC[C@@H](Nc3ncc4ccc(OC)cc4n3)C2)cc1` [Example 34, (R)-N-(4-(3-((7-methoxyquinazolin-2-yl)amino)pyrrolidine-1-carbonyl)phenyl)acrylamide], for which the 50% inhibitory concentration (IC50) in assay [1] lay in the range of 100 to 1000 nM.
In turn, `C=CC(=O)Nc1ccc(C(=O)N2CC[C@@H](Nc3ncc4ccc(C#N)cc4n3)C2)cc1` [Example 37, (R)—N-(4-(3-((7-cyanoquinazolin-2-yl)amino)pyrrolidine-1-carbonyl)phenyl)acrylamide] yielded an IC50 in assay [2] of 1000 to 10000 nM.
Still for that read-out and setting: in the case of `C=CC(=O)Nc1ccc(C(=O)N2CC[C@@H](Nc3ncc4ccc(=O)n(C(C)C)c4n3)C2)cc1` [Example 43, (R)—N-(4-(3-((8-isopropyl-7-oxo-7,8-dihydropyrido[2,3-d]pyrimidin-2-yl)amino)pyrrolidine-1-carbonyl)phenyl)acrylamide] it was 100 to 1000 nM; in that of `CCC(=O)Nc1ccc(C(=O)N2CC[C@@H](Nc3ncc4ccccc4n3)C2)cc1` [Example 44, (R)—N-(4-(3-(quinazolin-2-ylamino)pyrrolidine-1-carbonyl)phenyl)propionamide], 1000 to 10000 nM; in that of `CCC(=O)Nc1ccc(C(=O)N2CC[C@@H](Nc3ncc4ccc(=O)n(C(C)C)c4n3)C2)cc1` [Example 61, (R)—N-(4-(3-((8-isopropyl-7-oxo-7,8-dihydropyrido[2,3-d]pyrimidin-2-yl)amino)pyrrolidine-1-carbonyl)phenyl)propionamide], 1000 to 10000 nM.
`C=CC(=O)Nc1ccc(C(=O)N2CC[C@@H](Nc3ncc4ccccc4n3)C2)cc1F` [Example 62, (R)—N-(2-fluoro-4-(3-(quinazolin-2-ylamino)pyrrolidine-1-carbonyl)phenyl)acrylamide]: the 50% inhibitory concentration (IC50) in assay [2] lay within 100 to 1000 nM.
`C=CC(=O)N(C)c1ccc(C(=O)N2CC[C@@H](Nc3ncc4ccccc4n3)C2)cc1` [Example 74, (R)—N-methyl-N-(4-(3-(quinazolin-2-ylamino)pyrrolidine-1-carbonyl)phenyl)acrylamide]: the half-maximal inhibitory concentration (IC50) in assay [2] and in assay [1] was 100 to 1000 nM throughout.
`COc1cc(NC(=O)/C=C/CN(C)C)ccc1C(=O)N1CC[C@@H](Nc2ncc3ccccc3n2)C1` [Example 85, (R,E)-4-(dimethylamino)-N-(3-methoxy-4-(3-(quinazolin-2-ylamino)pyrrolidine-1-carbonyl)phenyl)but-2-enamide] returned an IC50 in assay [1] of 1000 to 10000 nM.
Turning to `CN(C)C/C=C/C(=O)N(C)c1ccc(C(=O)N2CC[C@@H](Nc3ncc4ccccc4n3)C2)cc1` [Example 86, (R,E)-4-(dimethylamino)-N-methyl-N-(4-(3-(quinazolin-2-ylamino)pyrrolidine-1-carbonyl)phenyl)but-2-enamide], the IC50 in assay [1] was 1000 to 10000 nM.
For `C=CC(=O)Nc1ccc(C(=O)N2CC[C@@H](Nc3ncc4ccccc4n3)C2)cc1Cl` [Example 88, (R)—N-(2-chloro-4-(3-(quinazolin-2-ylamino)pyrrolidine-1-carbonyl)phenyl)acrylamide], the IC50 in assay [2] and in assay [1] was 100 to 1000 nM throughout.
